Biological target: T1, Caspase-3 (Homo sapiens, UniProt P42574)
T1 sequence (P42574 whole entry): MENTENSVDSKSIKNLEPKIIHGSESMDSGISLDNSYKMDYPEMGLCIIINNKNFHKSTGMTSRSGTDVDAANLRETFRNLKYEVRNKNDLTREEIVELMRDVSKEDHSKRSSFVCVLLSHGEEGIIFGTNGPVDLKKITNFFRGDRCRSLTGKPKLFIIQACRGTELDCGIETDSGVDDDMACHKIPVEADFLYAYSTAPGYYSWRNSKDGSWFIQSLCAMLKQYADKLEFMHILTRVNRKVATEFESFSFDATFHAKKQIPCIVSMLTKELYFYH
Assay: Inhibition of caspase3

CC(=O)N[C@@H](CC(=O)O)C(=O)N[C@@H](CCC(=O)O)C(=O)N[C@H](C(=O)N[C@H](C=O)CC(=O)O)C(C)C
IC50: 21 nM

Reference: ChEMBL document CHEMBL1138183, “Design, synthesis, and biological evaluation of isoquinoline-1,3,4-trione derivatives as potent caspase-3 inhibitors” (J Med Chem, 2006)
